Drawing on paper PMC5522078, “Discovery and characterization of small molecules targeting the DNA-binding ETS domain of ERG in prostate cancer” (Oncotarget, 2017), this text covers IC50 for nine compounds.

Sequences of proteins named here, by UniProt entry; tags and fusion partners are left off.
UniProt P11308, whole entry: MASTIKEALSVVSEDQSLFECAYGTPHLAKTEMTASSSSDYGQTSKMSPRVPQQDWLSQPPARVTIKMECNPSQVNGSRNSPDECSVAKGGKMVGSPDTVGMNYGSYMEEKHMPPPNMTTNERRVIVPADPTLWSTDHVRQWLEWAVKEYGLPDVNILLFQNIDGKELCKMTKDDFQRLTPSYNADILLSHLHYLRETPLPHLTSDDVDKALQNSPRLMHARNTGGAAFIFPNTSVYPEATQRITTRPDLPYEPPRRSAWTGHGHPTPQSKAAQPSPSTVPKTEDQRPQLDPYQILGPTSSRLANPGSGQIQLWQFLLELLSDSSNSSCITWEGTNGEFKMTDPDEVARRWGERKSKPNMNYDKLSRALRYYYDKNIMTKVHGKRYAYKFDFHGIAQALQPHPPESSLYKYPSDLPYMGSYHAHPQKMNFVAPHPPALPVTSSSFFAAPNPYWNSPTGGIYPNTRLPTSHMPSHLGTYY

Molecules are shown by their SMILES.

The data set deals with ERG (Homo sapiens, UniProt P11308). Put plainly: Dual reporter luciferase assay (pETS-luc) in PNT1B-ERG cells. The following applies: read-out: IC50 in luciferase assay (pETS-luc reporter activity), PNT1B-ERG cells, 0.1-100 μM, 48 h treatment. On the procedure:
All of the compounds selected from the virtual screening were tested in a luciferase-based ERG-responsive reporter assay, using two ERG-overexpressing cell lines, VCaP and PNT1B-ERG, previously developed in house. […] Data were normalized first to Renilla luciferase and then to the DMSO-media control on each plate, unless otherwise stated. Initial hit compounds were identified as those with an average normalized luciferase reading (firefly luciferase/Renilla luciferase readings) that is 60% or less of the average normalized luciferase reading of the DMSO-media control (i.e. 40% or more reduction of luciferase activity) at 10 μM. Representative example of raw Renilla luciferase readings presented in Supplementary Figure 9B. The luciferase assays were repeated for each lead compound under multiple concentrations (0.1 to 100 μM) to establish a dose-dependent response and an IC50 value. AR reporter assay was performed as previously described.
By IC50 is commonly meant the concentration that gives 50% inhibition. With `CC(C)(C)c1ccc(C=NN=C2NC(=O)C(CC(=O)O)S2)cc1` (stereo not drawn), the IC50 is 2000 nM.

For `CC(C)(C)c1ccc(C=NN=C2NC(=O)C(CC(=O)O)S2)c(F)c1` (stereo not drawn), the IC50 came out at 8000 nM. Under `CC(C)(C)c1ccc(C=NN=C2NC(=O)C(CC(=O)O)S2)c(O)c1` (stereo not drawn) stands 3000 nM. In the case of `CC(C)(C)c1ccc(C=NN=C2NC(=O)C(CC(=O)O)S2)cc1Cl` (stereo not drawn), the IC50 was found to be 8000 nM.

As to `CC(C)(C)c1ccc(C=NN=C2NC(=O)C(CC(=O)O)S2)c(Cl)c1` (stereo not drawn), the IC50 is 1000 nM. The result for `Cc1cc(C(C)(C)C)ccc1C=NN=C1NC(=O)C(CC(=O)O)S1` (stereo not drawn) reads 2000 nM; that for `CC(C)(C)c1ccc(C=NN=C2NC(=O)C(CC(=O)O)S2)cc1F` (stereo not drawn), 4000 nM; that for `Cc1cc(C=NN=C2NC(=O)C(CC(=O)O)S2)ccc1C(C)(C)C` (stereo not drawn), 4000 nM.

Consider `O=C(O)CC1SC(=NN=Cc2ccc(C3CCC3)cc2)NC1=O` (stereo not drawn), for which the 50% inhibitory concentration (IC50) was determined as 1000 nM.
